Experimental data as given in patent US20190038556A1, “FORMULATIONS AND CARRIER SYSTEMS INCLUDING COMPOUND INTERACTIVE DOMAINS” (University of Pittsburgh - Of The Commonwealth System of …, priority 2012, published 2019).

Columns and labels:
[1] = Micelle-facilitated solubilization of JP4-039; conditions: sufficient carrier-to-drug ratios; no crystal formation
[2] = Particle size measurement by laser dynamic light scattering; format: physicochemical; conditions: JP4-039 loaded micelles
Experimental: 1(f). Particle size measurement. […] Samples were further diluted ten times in distilled water and sizes were measured by laser dynamic light scattering using a particle sizer (Zetasizer Nano ZS instrument, available from Malvern Instruments Ltd of Worcestershire, United Kingdom). Size measurement of emulsion particles were conducted using a Coulter N4 particle sizer after a 100-fold dilution in saline.

| Substance | Stability of JP4-039 mixed micelle formulation over time [1] | Particle Sizes w/JP4-039 [2] |
| --- | --- | --- |
| Monomethoxy PEG2,000-α-Fmoc-ε-Oleoyl Lysine [lipopeptide 1] | unstable over time |  |
| Monomethoxy PEG5,000-lysyl-[lysyl-(α-Fmoc-ε-oleoyl lysine)2]2 [lipopeptide 4] | > one month | 128.6 +/− 5.9 nm |
